Our source for the IC50 values is patent publication US5747503A, “Selective inhibitors of biogenic amine transporters” (priority 1996, dated 1998).

The chains behind the UniProt entries cited, without tags or fusion partners.
UniProt P23977, whole entry: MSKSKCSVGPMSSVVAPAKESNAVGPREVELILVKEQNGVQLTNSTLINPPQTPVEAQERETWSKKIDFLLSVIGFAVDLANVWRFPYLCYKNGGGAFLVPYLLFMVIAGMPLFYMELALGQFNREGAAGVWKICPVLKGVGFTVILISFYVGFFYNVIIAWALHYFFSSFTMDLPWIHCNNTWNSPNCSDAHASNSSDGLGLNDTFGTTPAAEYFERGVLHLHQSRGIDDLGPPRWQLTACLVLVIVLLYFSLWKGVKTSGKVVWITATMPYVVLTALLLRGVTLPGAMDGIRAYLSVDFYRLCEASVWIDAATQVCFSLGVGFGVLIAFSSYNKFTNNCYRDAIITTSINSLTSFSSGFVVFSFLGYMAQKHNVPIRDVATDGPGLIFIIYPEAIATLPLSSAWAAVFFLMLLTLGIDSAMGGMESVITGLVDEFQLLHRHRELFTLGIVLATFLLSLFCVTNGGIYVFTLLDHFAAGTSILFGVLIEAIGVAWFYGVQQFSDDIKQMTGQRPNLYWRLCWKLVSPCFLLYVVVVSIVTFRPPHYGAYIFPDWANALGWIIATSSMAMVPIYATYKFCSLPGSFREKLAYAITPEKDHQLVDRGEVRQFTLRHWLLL

One may read the IC50 as the concentration needed to halve the response being measured. A lower IC50 goes with inhibition by little substance.

For this assay, the target named is T1, DA transporter (Rattus norvegicus, UniProt P23977).
T1 construct: Striata were dissected using glass manipulators; from tissue; host or cells: striatum of male Sprague-Dawley rats, membranes
The assay can be described thus: [^3 H]CFT binding to DA transporter. Conditions: Table 2; nM ± SD; rat striatum. As to the method: For [^3 H]J2B-carbomethoxy-3B-(4-fluorophenyl)-tropane (CFT, WIN35,428) binding assays, male Sprague-Dawley rats (200 to 300 gm) were anesthetized with C02 gas, and decapitated. Striata were dissected using glass manipulators, placed in small plastic containers, and then allowed to freeze by placing the container in dry ice.
Striata collected in this way were stored at […]. On the day of the assay, each striatum was placed in ice-cold binding buffer (BB: 55.2 mM sodium phosphate buffer, pH 7.4, 5 ml per caudate), and homogenized while still frozen with a Polytron. The homogenate was centrifuged for 10 min at 30,000×g, and the pellet was resuspended in an equal volume of BB. The homogenate was recentrifuged, and the pellet was resuspended in an equal volume of BB. An aliquot was saved for determination of protein (0.5 ml), and the remaining homogenate was brought up to a final volume of 22 ml/striatum using ice-cold BB. Typical final protein concentrations, determined with the Lowry method (Lowry, O. H., et al. J. Biol. Chem. 193: 265-275 (1951)), were 100 μg/ml. […] Aliquots of membranes were then used in the radioligand binding assays.
The [^3 H]nisoxetine assay for the norepinephrine transporter (NE) was carried out as described (Rothman, et al. (1993), supra; Tejani-Butt, S. M., et al. Eur. J. Pharmacol. 191:239-243 (1990)). […]

Compound `CNC1CC(c2ccc(Cl)c(Cl)c2)c2ccccc21` (stereo not shown) [Indatraline] gave a concentration for half-maximal inhibition (IC50) of 4.32 ± 0.46 nM.
